# Curated experimental data: properties

Values as listed in the OPERA 2.9 repository of K. Mansouri.

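These are experimental values that the OPERA curators gathered from public databases to train and test their QSAR models. One number stands for a compound and property, with no spread given. How each value was measured is not recorded, so precision varies. Where a salt, mixture or single isomer is drawn, the source does not say that exactly this form was tested. Some upstream entries may be estimates or bounds without being marked so.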

The melting point is given in degrees Celsius. The boiling point refers to atmospheric pressure (760 mmHg), by the definition of the set. The octanol-water partition coefficient is given as log10; larger values mean a more lipophilic compound. Water solubility is log10 of mol/L, nominally at 25 °C; higher is more soluble. Vapor pressure is log10 of mmHg; the set covers 15 to 30 °C, mostly 20 to 25 °C. The unbound fraction in human plasma runs from 0 (all bound) to 1 (all free).

For C=CN1CCCCCC1=O [N-Vinylcaprolactam] the data give logP (octanol/water) 1.23 and log vapor pressure -1.62 (log10 mmHg). The entry for CO[Si](CCCNC(=O)OCCCCCCOC(=O)NCCC[Si](OC)(OC)OC)(OC)OC lists mp 2.5 °C and logP (octanol/water) 5.1 and log vapor pressure -4.907 (log10 mmHg). Listed for C=Cn1cc[n+](C)c1.COS(=O)(=O)[O-] [3-Methyl-1-vinylimidazolium methyl sulfate]: mp 48.5 °C and logP (octanol/water) -3.45. C[C@H](CCC(=O)O)[C@H]1CC[C@H]2[C@@H]3C(=O)C[C@@H]4CC(=O)CC[C@]4(C)[C@H]3CC(=O)[C@]12C [Dehydrocholic acid] is reported with logP (octanol/water) 1.64 and log S -3.555 (log10 mol/L). Listed for CCC(C)(CCCC(C)C)OC(C)=O (stereo not given) [3,7-Dimethyloctan-3-yl acetate]: logP (octanol/water) 5.6 and log S -5.103 (log10 mol/L) and log vapor pressure -0.763 (log10 mmHg). CCCCCCCCCC(=O)Oc1ccc(C(=O)O)cc1 [4-decanoyloxybenzoic Acid] is reported with mp 140 °C and boiling point 430 °C and logP (octanol/water) 4 and log S -5.425 (log10 mol/L) and log vapor pressure -5.063 (log10 mmHg).

For COC(=O)C1C(C)=CCCC1(C)C (stereo not given) [Methyl 2,6,6-trimethylcyclohex-2-ene-1-carboxylate] the data give log S -2.909 (log10 mol/L) and log vapor pressure -1.146 (log10 mmHg). Listed for CC(=O)CC(C)(C)C1CCCCC1 [4-Cyclohexyl-4-methyl-pentan-2-one]: logP (octanol/water) 4.36 and log S -3.548 (log10 mol/L) and log vapor pressure -0.598 (log10 mmHg). The entry for Cc1ccc(N)c(Cl)c1O [5-Amino-6-chloro-o-cresol] lists logP (octanol/water) 1.644 and log vapor pressure -3.34 (log10 mmHg). COc1ncnc(NS(=O)(=O)c2ccc(N)cc2)c1OC [Sulfadoxine] is reported with log S -2.06 (log10 mol/L) and log vapor pressure -8.801 (log10 mmHg) and plasma fu 0.06. CC(C)[C@@H]1CC[C@@H](C)C[C@H]1OC(=O)OCCO [Menthyl glycol carbonate] is reported with mp 52 °C and logP (octanol/water) 3.55 and log S -3.218 (log10 mol/L) and log vapor pressure -4.238 (log10 mmHg). For COc1ccc2c(c1)C(=O)N(CCc1ccc(S(=O)(=O)NC(=O)NC3CCCCC3)cc1)C(=O)C2(C)C [Gliquidone] the data give logP (octanol/water) 4.5 and log S -5.38 (log10 mol/L).

Listed for CCC[C@H]1CC[C@H](c2ccc(-c3ccc(B(O)O)c(F)c3)cc2)CC1: log S -6.272 (log10 mol/L) and log vapor pressure -5.782 (log10 mmHg). Cc1cc(S(=O)(=O)[O-])c(/N=N/c2c(O)ccc3ccccc23)cc1Cl.Cc1cc(S(=O)(=O)[O-])c(/N=N/c2c(O)ccc3ccccc23)cc1Cl.[Ba+2] is reported with logP (octanol/water) 2.027 and log S -7.648 (log10 mol/L). For CC(O)COCC(C)O (stereo not given) [1,1'-Oxybis-2-propanol] the data give logP (octanol/water) -1.5 and log vapor pressure -1.523 (log10 mmHg). For CC1Cc2ccccc2/[N+]1=C\C=C1/N(C)c2ccccc2C1(C)C.[Cl-] (stereo partly drawn) the data give mp 120.5 °C and logP (octanol/water) 1. Listed for CC(=O)OCC=C(C)C [3,3-Dimethylallyl acetate]: logP (octanol/water) 2 and log S -1.474 (log10 mol/L) and log vapor pressure 0.367 (log10 mmHg). The entry for CC(=O)OC1(C)CCOC(CC(C)C)C1 (stereo not given) lists log S -2.42 (log10 mol/L) and log vapor pressure -1.835 (log10 mmHg).

NNC(=O)CCCCC(=O)NN [Hexanedihydrazide] is reported with logP (octanol/water) -2.05 and log vapor pressure -9.648 (log10 mmHg). The entry for COC(=O)C(c1ccccc1Oc1cc(Cl)ncn1)C(OC)OC (stereo not given) lists mp 86 °C and boiling point 256 °C. The entry for Cc1ccc(-c2[nH]c(C#N)nc2Cl)cc1 [4-Chloro-5-(4-methylphenyl)-1H-imidazole-2-carbonitrile] lists mp 152.1 °C and logP (octanol/water) 3 and log S -4.259 (log10 mol/L). The entry for CCCC(C)=NO [2-Pentanone oxime] lists boiling point 168 °C and log vapor pressure 0.205 (log10 mmHg). CC(C)CCCCCCO [7-Methyl-1-octanol] has log S -2.495 (log10 mol/L) and log vapor pressure -2.222 (log10 mmHg). C/C=C/C(=O)C(C)CC (stereo partly drawn) [(E)-5-Methyl-2-hepten-4-one] has logP (octanol/water) 2.28 and log S -1.621 (log10 mol/L) and log vapor pressure 0.337 (log10 mmHg).

CO/N=C1\CN(c2nc3c(cc2F)c(=O)c(C(=O)O)cn3C2CC2)CC1CN (stereo partly drawn) [Gemifloxacin] has mp 236 °C and logP (octanol/water) 2.3 and log S -3.268 (log10 mol/L). C=CC(=O)NC(C)(C)CS(=O)(=O)[O-].[NH4+] is reported with logP (octanol/water) -3.105 and log S 0.531 (log10 mol/L) and log vapor pressure -10.26 (log10 mmHg). The entry for O=C1CCCC=CCCCCCCCCCC1 [5-Cyclohexadecen-1-one] lists mp 21.8 °C and logP (octanol/water) 6.4 and log S -5.317 (log10 mol/L) and log vapor pressure -3.824 (log10 mmHg). SCCSCCS [2,2'-Sulfanediyldiethanethiol] has logP (octanol/water) 2.52 and log S -2.396 (log10 mol/L) and log vapor pressure -2.173 (log10 mmHg). Listed for C=CC(=O)OCCOc1ccccc1 [2-Phenoxyethyl acrylate]: mp -74 °C and logP (octanol/water) 2.58 and log vapor pressure -2.755 (log10 mmHg). The entry for CCOC(C)OCCc1ccccc1 (stereo not given) [[2-(1-Ethoxyethoxy)ethyl]benzene] lists logP (octanol/water) 3.5 and log S -2.632 (log10 mol/L) and log vapor pressure -1.634 (log10 mmHg).

For CCN(C(=S)[S-])c1ccccc1.CCN(C(=S)[S-])c1ccccc1.[Zn+2] [Zinc bis[ethyl(phenyl)carbamodithioate]] the data give logP (octanol/water) 3.4 and log S -6.816 (log10 mol/L).

Extract of 4 entries:

{"smiles": "Cc1ccc(-c2[nH]c(C#N)nc2Cl)cc1", "name": "4-Chloro-5-(4-methylphenyl)-1H-imidazole-2-carbonitrile", "mp (°C)": "152.1", "logP (octanol/water)": "3", "log S (log10 mol/L)": "-4.259"}
{"smiles": "COC(=O)C1C(C)=CCCC1(C)C", "stereo": "stereo not given", "name": "Methyl 2,6,6-trimethylcyclohex-2-ene-1-carboxylate", "log S (log10 mol/L)": "-2.909", "log vapor pressure (log10 mmHg)": "-1.146"}
{"smiles": "CCCCCCCCCC(=O)Oc1ccc(C(=O)O)cc1", "name": "4-decanoyloxybenzoic Acid", "mp (°C)": "140", "boiling point (°C)": "430", "logP (octanol/water)": "4", "log S (log10 mol/L)": "-5.425", "log vapor pressure (log10 mmHg)": "-5.063"}
{"smiles": "SCCSCCS", "name": "2,2'-Sulfanediyldiethanethiol", "logP (octanol/water)": "2.52", "log S (log10 mol/L)": "-2.396", "log vapor pressure (log10 mmHg)": "-2.173"}